Experiment: Water-solubility test at 25° C. of the isolated salts (HPLC)
Assay type: physicochemical
Conditions: shaken 3 hours (5 days for meglumine salt), filtered, concentration of Compound A by HPLC
Procedure: Preparation of the Test Solution
After shaking, the mixture was filtered through a 0.45 μm membrane filter (0.2 μm for meglumine salt). 1 mL of the filtrate was precisely pipetted and thereto was added 50% DMF so as to be totally 50 mL in precise. 2 mL of this solution was precisely pipetted and thereto was added 50% DMF so as to be totally 20 mL in precise to give a sample solution.
Preparation of the Standard Solution
Using each 10 μL of the sample solutions and the standard solutions, the liquid chromatographic analyses were carried out in the following conditions.

2-(4-chlorobenzoylamino)-3-(2-quinolon-4-yl)propionic acid-.1/2 ethylenediamine salt [Compound A·1/2 ethylenediamine salt]
Solubility (%): 0.05%

From patent publication US7732611B2, “Amine salt of carbostyril derivative” (Otsuka Pharmaceutical Co., Ltd., priority 2004, dated 2010)
